The results in this text go back to patent publication US10028961B2, “Therapeutically active compounds and their methods of use” (AGIOS PHARMACEUTICALS, INC., priority 2013, dated 2018).

By UniProt entry, the sequences of proteins in these tests, tags left out.
UniProt O75874, whole entry R132H: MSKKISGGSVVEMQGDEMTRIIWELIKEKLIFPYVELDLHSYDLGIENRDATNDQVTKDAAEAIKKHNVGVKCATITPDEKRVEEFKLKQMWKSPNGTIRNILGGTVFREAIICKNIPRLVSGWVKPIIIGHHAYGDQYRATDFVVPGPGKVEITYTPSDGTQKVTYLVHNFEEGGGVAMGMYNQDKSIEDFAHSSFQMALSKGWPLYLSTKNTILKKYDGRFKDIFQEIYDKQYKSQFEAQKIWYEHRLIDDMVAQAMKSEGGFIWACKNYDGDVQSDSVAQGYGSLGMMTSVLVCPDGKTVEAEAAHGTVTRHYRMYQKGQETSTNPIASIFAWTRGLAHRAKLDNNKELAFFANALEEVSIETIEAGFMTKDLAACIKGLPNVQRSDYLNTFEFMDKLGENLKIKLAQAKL
UniProt O75874, whole entry, stated change not applied: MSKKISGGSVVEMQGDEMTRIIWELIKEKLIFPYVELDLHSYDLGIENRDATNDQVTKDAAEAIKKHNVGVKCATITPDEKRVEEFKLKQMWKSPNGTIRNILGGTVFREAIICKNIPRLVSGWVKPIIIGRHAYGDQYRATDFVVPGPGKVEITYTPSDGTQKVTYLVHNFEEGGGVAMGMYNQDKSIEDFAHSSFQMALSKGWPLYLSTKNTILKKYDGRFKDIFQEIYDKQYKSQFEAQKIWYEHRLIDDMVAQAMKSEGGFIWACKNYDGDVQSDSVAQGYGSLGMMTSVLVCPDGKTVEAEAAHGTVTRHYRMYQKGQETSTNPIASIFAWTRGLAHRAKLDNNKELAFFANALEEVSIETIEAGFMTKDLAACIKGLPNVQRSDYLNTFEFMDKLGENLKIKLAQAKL
UniProt O75874, whole entry R132C: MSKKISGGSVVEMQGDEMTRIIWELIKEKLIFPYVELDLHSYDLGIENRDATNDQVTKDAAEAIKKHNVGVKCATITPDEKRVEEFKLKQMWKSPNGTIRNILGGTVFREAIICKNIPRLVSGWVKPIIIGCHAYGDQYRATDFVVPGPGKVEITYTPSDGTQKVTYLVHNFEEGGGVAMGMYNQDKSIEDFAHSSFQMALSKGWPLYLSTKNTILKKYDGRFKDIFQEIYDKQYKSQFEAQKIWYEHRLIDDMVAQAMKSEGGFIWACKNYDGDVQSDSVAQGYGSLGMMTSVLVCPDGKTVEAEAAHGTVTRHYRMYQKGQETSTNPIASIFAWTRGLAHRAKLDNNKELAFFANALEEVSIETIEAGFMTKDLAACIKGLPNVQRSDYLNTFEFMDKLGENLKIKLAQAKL

Common to all, as to assay type: biochemical
Experiment [1] addresses IDH1 wt/IDH1 R132H heterodimer (Homo sapiens (Human), UniProt O75874, R132H). The experiment can be described thus: In vitro assay for IDH1m R132H inhibitors, IDH1 wt/IDH1 R132H heterodimer, NADPH depletion (diaphorase/resazurin). Particulars: NADPH/NADP, not saturated. The method, then: (§1) The following describes the experimental procedures that can be used to obtain data on columns 2 and 4 of Table 4 and column 2 of Table 5.
(§2) In the primary reaction, the reduction of α-KG acid to 2-HG is accompanied by a concomitant oxidation of NADPH to NADP. The amount of NADPH remaining at the end of the reaction time is measured in a secondary diaphorase/resazurin reaction in which the NADPH is consumed in a 1:1 molar ratio with the conversion of resazurin to the highly fluorescent resorufin.
The mixture of compound, enzyme, and cofactor is pre-incubated at room temperature for 1 hr prior to the addition of alpha-ketoglutarate. To perform the secondary reaction, 10 uL of 1× buffer containing 36 μg/ml diaphorase and […] resazurin is added to the primary reaction and incubated for a further 5 minutes at 25° C. […] Compounds or compound dilutions are prepared in 100% DMSO concentration and diluted 1:50 into the final reaction. […] IC50s are determined.
IDH1 or IDH2 wildtype (wt) and mutant heterodimers are expressed and purified by methods known in the art. […] Co-expression of IDH1wt-his and IDH1R132C-flag is carried out in sf9 insect cells. Cells (25 g) are resuspended in 250 ml of 50 mM Tirs, 500 mM NaCl, pH7.4, at 4° C. with stirring. […]

The target of experiment [2] is IDH1-R132H homodimer enzyme (Homo sapiens (Human), UniProt O75874, R132H). Put plainly: In vitro assay IDH1-R132H homodimer, NADPH depletion assay with NADPH/NADP preincubation. The following applies: 5 μM NADPH and 37.5 μM NADP. As to the method:
The following describes the experimental procedures that can be used to obtain data on columns 3 and 5 of Table 5.
(§3) A test compound is prepared as 10 mM stock in DMSO and diluted to 50× final concentration in DMSO, for a 50 μl reaction mixture. IDH enzyme activity converting alpha-ketoglutarate to 2-hydroxyglutaric acid is measured using a NADPH depletion assay. In the assay the remaining cofactor is measured at the end of the reaction with the addition of a catalytic excess of diaphorase and resazurin, to generate a fluorescent signal in proportion to the amount of NADPH remaining. […] The reaction is started with the addition of 10 μl of Substrate Mix ([…], 5 mM alpha-ketoglutarate, in Assay Buffer) and the mixture is incubated for 60 minutes at room temperature.

The target of experiment [3] is IDH1 wt/IDH1 R132C heterodimer (Homo sapiens (Human), UniProt O75874, R132C). Put plainly: In vitro assay for IDH1m R132C inhibitors, IDH1 wt/IDH1 R132C heterodimer, NADPH depletion (diaphorase/resazurin). Particulars: NADPH/NADP. As to the method: as §1, §2
The mixture of compound, enzyme, and cofactor is pre-incubated at room temperature for 1 hr prior to the addition of alpha-ketoglutarate. To perform the secondary reaction, 10 uL of 1× buffer containing 36 μg/ml diaphorase and […] resazurin is added to the primary reaction and incubated for a further 5 minutes at 25° C. Florescence is read on a Spectramax platereader at Ex 544 Em 590. Compounds or compound dilutions are prepared in 100% DMSO concentration and diluted 1:50 into the final reaction. […] IC50s are determined.
IDH1 or IDH2 wildtype (wt) and mutant heterodimers are expressed and purified by methods known in the art. For example, IDH1wt/R132m heterodimer is expressed and purified as follows. Co-expression of IDH1wt-his and IDH1R132C-flag is carried out in sf9 insect cells. Cells (25 g) are resuspended in 250 ml of 50 mM Tirs, 500 mM NaCl, pH7.4, at 4° C. with stirring. […]

Another experiment concerns the target IDH1 R132C (Homo sapiens (Human), UniProt O75874, R132C). The experiment can be described thus: In vitro assay IDH1 R132C homodimer, NADPH depletion assay. The method, then:
The following describes the experimental procedures that can be used to obtain data on columns 3 and 6 of Table 4.
as §3, with “90” for “60”
The concentration of NADPH and alpha-ketoglutarate in the Substrate Buffer is 20 μM and 1 mM, respectively.

Molecules are shown by their SMILES. pIC50: −log10 of the molar value. Where only a bound is given, the exact number is not on record here.

Turning to `FC1(F)CC2(CC(Nc3nc(Nc4ccnc(C(F)(F)F)c4)nc(-c4cccc(C(F)(F)F)n4)n3)C2)C1` [Compound 257], the pIC50 in experiment [1], in experiment [2] and in experiment [3] was 6.00 to 7.00 throughout.

In the case of `C[C@H](Nc1cc(N[C@@H](C)C2CC2)nc(-c2cccc(C(F)(F)F)n2)n1)C1CC1` [Compound 416], the pIC50 at IDH1 R132C is less than 6.00.

As usually defined, the pIC50 is the IC50 on a negative log10 scale, so that one unit is a factor of ten. Lower therefore signals a large IC50.
